Data published in ChEMBL document CHEMBL1255205, “Validated predictive QSAR modeling of N-aryl-oxazolidinone-5-carboxamides for anti-HIV protease activity” (Bioorg Med Chem Lett, 2010).
pKi: −log10 of the molar value.

Target: Protease (Human immunodeficiency virus 1, UniProt Q9YQ12)
Assay: Inhibition of HIV1 protease

CC(=O)NC(C(=O)N[C@@H](Cc1ccccc1)CC(O)[C@H](Cc1ccccc1)NC(=O)[C@@H]1CN(c2ccccc2)C(=O)O1)C(C)C (stereo partly specified)
pKi: 6.88
